Tests used:
[1] = target: T1, purified human fibrinogen (Homo sapiens, UniProt P02679); test: Clotting activity, Sigma Amelung KC4 coagulometer; format: biochemical; details: KC-4 coagulometer at 0.5 mg/mL
T1 sequence (P02679 27-453): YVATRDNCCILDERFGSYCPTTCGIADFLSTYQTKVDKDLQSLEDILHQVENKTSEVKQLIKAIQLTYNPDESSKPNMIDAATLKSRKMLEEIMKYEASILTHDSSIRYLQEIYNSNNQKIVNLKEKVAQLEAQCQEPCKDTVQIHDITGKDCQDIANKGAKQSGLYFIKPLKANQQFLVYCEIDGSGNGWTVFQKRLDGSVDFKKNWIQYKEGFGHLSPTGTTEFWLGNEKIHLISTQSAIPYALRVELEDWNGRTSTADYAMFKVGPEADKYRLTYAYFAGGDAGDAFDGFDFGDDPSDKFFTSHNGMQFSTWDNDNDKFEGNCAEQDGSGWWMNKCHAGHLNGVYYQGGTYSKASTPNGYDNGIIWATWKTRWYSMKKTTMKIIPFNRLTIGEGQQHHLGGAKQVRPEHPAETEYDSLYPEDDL
T1 sequence (P02671 20-629 partner limits assumed): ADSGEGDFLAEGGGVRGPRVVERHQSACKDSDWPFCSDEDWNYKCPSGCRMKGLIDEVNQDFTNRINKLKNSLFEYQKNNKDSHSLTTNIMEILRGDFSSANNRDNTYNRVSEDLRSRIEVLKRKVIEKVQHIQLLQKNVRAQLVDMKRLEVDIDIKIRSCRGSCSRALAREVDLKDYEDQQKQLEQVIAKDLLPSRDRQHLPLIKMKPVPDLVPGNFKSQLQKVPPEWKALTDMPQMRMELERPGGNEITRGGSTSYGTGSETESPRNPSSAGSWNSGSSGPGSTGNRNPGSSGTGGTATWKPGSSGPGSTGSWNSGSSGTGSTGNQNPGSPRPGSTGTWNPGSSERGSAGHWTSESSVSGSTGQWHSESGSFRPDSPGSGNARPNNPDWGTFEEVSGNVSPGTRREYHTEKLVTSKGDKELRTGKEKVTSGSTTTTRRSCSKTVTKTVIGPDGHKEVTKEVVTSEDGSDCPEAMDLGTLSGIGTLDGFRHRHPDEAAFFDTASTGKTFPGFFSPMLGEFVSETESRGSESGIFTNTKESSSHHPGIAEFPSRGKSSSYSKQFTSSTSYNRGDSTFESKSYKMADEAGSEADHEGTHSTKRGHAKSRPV
T1 sequence (P02675 31-491 partner): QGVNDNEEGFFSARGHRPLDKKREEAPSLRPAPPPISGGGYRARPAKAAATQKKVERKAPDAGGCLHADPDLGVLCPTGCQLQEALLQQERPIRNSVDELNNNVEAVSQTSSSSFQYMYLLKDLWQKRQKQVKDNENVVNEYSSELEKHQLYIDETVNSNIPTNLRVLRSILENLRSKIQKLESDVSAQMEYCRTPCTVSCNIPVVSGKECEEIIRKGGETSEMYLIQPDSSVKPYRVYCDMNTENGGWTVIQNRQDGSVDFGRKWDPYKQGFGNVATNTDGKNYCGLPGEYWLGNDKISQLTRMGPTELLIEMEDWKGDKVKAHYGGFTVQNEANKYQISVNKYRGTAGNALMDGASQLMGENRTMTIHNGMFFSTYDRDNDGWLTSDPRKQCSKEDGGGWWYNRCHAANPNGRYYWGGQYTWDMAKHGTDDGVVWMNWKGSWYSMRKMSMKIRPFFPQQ
Experimental: The activity of the final product is investigated using a Sigma Amelung KC4 coagulometer. Briefly, 30 μL test sample at 0.5 mg/ml is added to 100 μL purified human fibrinogen at 3 mg/ml, the KC4 registers clot formation in less than 6 seconds.
The clotting activity of the sample was measured using a Sigma Amelung KC-4 coagulometer which measures the time taken to form a clot. The analysis of clotting activity of the eluted PeproStat was compared with that of non freeze-dried PeproStat.

rabbit fibrinogen = test: Flow cytometry binding of FITC-labelled fibrinogen to GPRPG-albumin microparticles; details: GPRPG peptide on albumin microparticles, flow cytometer
Experimental: The haemostatic activity of PeproStat was to be determined using a heparinised rabbit model. However, before using this model, it was important to determine that the product is active in a rabbit, and in particular that the fibrinogen-binding sequence of PeproStat (GPRP-) binds to rabbit fibrinogen. This was done by conjugating a GPRPG peptide to albumin microparticles, which were then incubated with FITC-labelled rabbit fibrinogen. Fluorescent fibrinogen binding to the particles can then be measured using a Flow Cytometer. […] This confirms published data showing that the relevant rabbit and human fibrinogen binding sequence exposed when thrombin cleaves Fibrinopeptide A from fibrinogen is the same.

[2] = test system: rabbit liver abrasion injury; test: Rabbit liver abrasion injury model, haemostatic effect of soaked gelatin pad; format: in vivo; details: 5 mg/ml soaked onto gelatin pad; rabbits dosed with heparin 1000 IU/kg; thrombin at 125 units/ml; 1-12 minutes
Experimental: A rabbit liver abrasion injury model was used to assess the comparative haemostatic effect of PeproStat, thrombin, or saline soaked onto a gelatin pad. Haemostatic activity was determined in rabbits dosed with heparin at 1000 IU/kg.
A gelatin pad was cut to 2.0×3.0 cm using a scalpel blade. For each treatment, a pad sample was immersed in a 1.5 ml aliquot of test solution (a PeproStat, thrombin, or saline solution). It was then withdrawn and squeezed between gloved fingers to expel air bubbles, then returned to the solution until required.
A superficial circular lesion (diameter 10.3 mm, depth 2-3 mm) was created by abrading the surface of the liver lobe using a Dremel hand drill (Model 395 Type 5, USA; 10,000-35,000 rpm) with a flat surface abrasion stone (Dremel, part no. 85602 USA). Blood exiting the wound was collected for 15 s with a pre-weighed dry swab. The weight of blood collected was used as a measure of bleeding severity. […]
Upon removal of the moist gauze, with the test pad still in place, the wound was evaluated for haemostasis at 1, 3, 6, 9, and 12 minutes, where one minute refers to the time from when the test pad is applied to the wound.
A score of 0 (i.e. no bleeding) is judged as successful haemostasis at each time point. The percentage of 34 treatments (n=34 rabbits) regarded as successful was calculated for each time point.

[3] = Recovery of protein extracted from freeze-dried gelatin pad (reverse phase HPLC); format: physicochemical; details: extracted in 10 mM sodium phosphate, 150 mM sodium chloride buffer pH 7.2
Experimental: 25 mg was cut from the pad and placed in a weighing boat. The dry PeproStat was extracted from the pad by thoroughly soaking the pad in 1 mL 10 mM sodium phosphate, 150 mM sodium chloride buffer, pH 7.2±0.2, and then squeezing the resultant solution out of the pad. The extraction procedure was performed on four separate occasions. The protein content of recovered PeproStat in the solution was measured using a 5 μm C8 Symmetry Reverse Phase HPLC from a calibration curve constructed from dilutions of standard PeproStat.

citrated whole blood = test: Blood impedance method, blood transfer through soaked polyester/rayon gauze; details: 0.5 mL at 5 mg/mL on polyester/rayon gauze; 4×0.5 mL citrated whole blood; n=3
Experimental: The haemostatic activity of 0.5 mL PeproStat at 5 mg/mL soaked onto a polyester/rayon blend was measured using a blood impedance method as follows:
A double layer of the polyester/rayon gauze was stretched over a Universal container with an internal diameter of 2.5 cm and the area of gauze covering the open tube was marked. The gauze was removed from the tube and 0.5 mL PeproStat at 5 mg/mL was applied to the marked circle; 0.5 ml water was applied to a second dressing marked in the same manner as a control.
The Universal containers were weighed and the soaked gauzes stretched across the mouth of the tube. 4×0.5 mL citrated whole blood was then applied sequentially to the soaked gauze, and blood transfer through the gauze was measured by the weight of blood in the tube.

fibrinogen = target: T2, fibrinogen (Homo sapiens, UniProt P02679); test: Stability in solution at 37° C., visual clot formation with fibrinogen; format: physicochemical; details: stored in solution at 37° C.
T2 sequence (P02679 27-453): T1 sequence (P02679 27-453)
T2 sequence (P02671 20-629 partner limits assumed): T1 sequence (P02671 20-629 partner limits assumed)
T2 sequence (P02675 31-491 partner): T1 sequence (P02675 31-491 partner)
Experimental: PeproStat (comprising fibrinogen-binding peptides, each of sequence GPRPG immobilised to HSA carrier) was stored in solution for 6 months at 37° C. At time zero, and various times during the storage period, samples of the stored solution were assayed for ability to form a co-polymer with fibrinogen, as follows:
Fibrinogen was diluted in 10 mM HEPES, 0.15M NaCl, pH 7.3+/1 0.2 to 6 mg/ml. 25 μl PeproStat at 5 mg/ml was added to 400 μl of the diluted fibrinogen, and the time taken for formation of a visual clot comprising a co-polymer of PeproStat and fibrinogen was recorded.

## PeproStat: fibrinogen-binding peptide GPRPG linked via PEG12-maleimide linker to thiolated human serum albumin carrier
[1]
  Clotting activity of PeproStat from freeze-dried pad versus control non freeze-dried PeproStat: no significant difference
Rabbit fibrinogen
  Binding to rabbit fibrinogen compared with human fibrinogen: comparable
[2]
  Haemostatic activity (successful haemostasis, bleeding score 0) versus saline or thrombin pad: significantly better haemostatic agent
[3]
  Protein recovered from the pad: 90-95%
Citrated whole blood
  Mean weight of blood passing through the gauze: 0.009 g
fibrinogen
  Stability in solution (retained ability to form co-polymer with fibrinogen): at least 6 months

Source: patent US9808553B2, “Haemostatic wound dressing” (Haemostatix Limited, priority 2012, dated 2017)
